Measurements from patent publication US6124354A, “Arylcycloalkane carboxylic esters, their use, pharmaceutical compositions and preparation” (dated 2000).

The chains behind the UniProt entries cited, without tags or fusion partners. Residues count along the entry.
UniProt H0W1Z3, 1-590: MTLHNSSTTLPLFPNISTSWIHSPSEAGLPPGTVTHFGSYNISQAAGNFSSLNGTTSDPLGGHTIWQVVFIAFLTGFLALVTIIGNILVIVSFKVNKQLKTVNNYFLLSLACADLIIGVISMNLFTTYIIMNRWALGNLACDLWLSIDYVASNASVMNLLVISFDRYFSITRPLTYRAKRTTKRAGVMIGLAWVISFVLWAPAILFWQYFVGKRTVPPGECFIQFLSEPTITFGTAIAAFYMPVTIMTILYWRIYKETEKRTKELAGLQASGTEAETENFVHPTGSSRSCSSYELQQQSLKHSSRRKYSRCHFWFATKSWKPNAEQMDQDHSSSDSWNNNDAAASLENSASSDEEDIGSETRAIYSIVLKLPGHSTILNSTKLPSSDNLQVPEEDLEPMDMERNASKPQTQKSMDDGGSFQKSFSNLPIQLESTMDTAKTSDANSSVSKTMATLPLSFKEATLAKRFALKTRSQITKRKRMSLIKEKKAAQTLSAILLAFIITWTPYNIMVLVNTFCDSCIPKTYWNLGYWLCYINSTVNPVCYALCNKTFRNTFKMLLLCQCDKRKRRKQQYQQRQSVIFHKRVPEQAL

These molecules were tested against urinary bladder smooth muscle (muscarinic receptor) (Cavia porcellus, UniProt H0W1Z3) (assay: Functional in vitro study: antagonism of carbachol-induced contraction of urinary bladder smooth muscle strips (KB)). Conditions: Table 2; guinea pig urinary bladder, carbachol agonist, 60 min incubation.

Row | SMILES | Kb
1 | O=C(OC1CN2CCC1CC2)C1(c2cccs2)CCC1 (centres unmarked) | 0.4 nM
2 | COc1ccc(C2(C(=O)OC3CN4CCC3CC4)CCC2)cc1 (centres unmarked) | 24 nM
3 | COc1cccc(C2(C(=O)OC3CN4CCC3CC4)CCC2)c1 (centres unmarked) | 8.7 nM
4 | CC1C(OC(=O)C2(c3ccccc3)CCC2)C2CCN1CC2 (centres unmarked) | 0.7 nM
5 | O=C(OC1CN2CCC1CC2)C1(c2cccc([N+](=O)[O-])c2)CCC1 (centres unmarked) | 28 nM
6 | Cc1cccc(C2(C(=O)OC3CN4CCC3CC4)CCC2)c1 (centres unmarked) | 0.8 nM
7 | CC1(C)CC(C(=O)OC2CN3CCC2CC3)(c2ccccc2)C1 (centres unmarked) | 0.2 nM

Same assay, conditions: Table 3; guinea pig urinary bladder, carbachol agonist, 60 min incubation

Row | SMILES | Kb
8 | O=C(OC1CN2CCC1CC2)C1(c2cccs2)CCCC1 (centres unmarked) | 0.7 nM
9 | O=C(OC1CN2CCC1CC2)C1(c2ccsc2)CCCC1 (centres unmarked) | 0.3 nM

Same assay, conditions: Table 4; guinea pig urinary bladder, carbachol agonist, 60 min incubation

Row | SMILES | Kb
10 | O=C(OC1CN2CCC1CC2)C1(c2ccccc2)CCCCC1 (centres unmarked) | 0.4 nM
11 | COC1CCC(C(=O)OC2CN3CCC2CC3)(c2ccccc2)CC1 (centres unmarked) | 2 nM
